Test results from PubChem BioAssay AID463189 (University of Pittsburgh Molecular Library Screening Center, 2010).
Where “and” joins values, the source holds several entries; their conditions need not be identical. Equal entries are not always repeated. This is a selection; strong and weak results do not stand in their true shares. Calls of active or inactive are those of the source.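 The calls were made as follows: active = inhibition at or above 50% relative to wild type and mutant plate controls; inactive = inhibition below 50%.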

assay: loss of swimming-algae plug formation – whole organism, Chlamydomonas reinhardtii, WT vs cilia-less mutant, absorbance, 96-well, primary screen (AID 463189); conditions: Chlamydomonas reinhardtii gravitaxis, OD600 absorbance, 2 days; at 10 µM; active compounds read high;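 also: 0% = wild type cc124 cells in DMSO and 100% = ciliumless bld1 mutant cells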

| Structure (SMILES) | inhibition |
| --- | --- |
| Cc1cccc(OCC(=O)OC2CN3CCC2CC3)c1 (stereo not drawn) | inactive: -5.52% |
| CN(C(=O)Cc1ccc(Cl)c(Cl)c1)[C@@H]1CC[C@]2(CCCO2)C[C@H]1N1CCCC1 | inactive: -1.85% |
| CN(C(=O)Cc1ccccc1)[C@@H]1CC[C@]2(CCCO2)C[C@H]1N1CCCC1 | inactive: 8.55% |
| Cc1ccc(OCC(=O)OC2CN3CCC2CC3)cc1 (stereo not drawn) | inactive: -6.96% |
| CN(CCCl)Cc1cc(Cl)c(NC2=NCCN2)c(Cl)c1 | inactive: 4.63% |
| CN(C(=O)Cc1ccc(Cl)c(Cl)c1)[C@@H]1CCCC[C@H]1N1CCCC1 | inactive: 1.54% |
| CN(C(=O)Cc1ccc(Cl)c(Cl)c1)[C@H]1CCCC[C@@H]1N1CCCC1 | inactive: -2.18% and inactive: -6.49% |
| CN(C(=O)Cc1ccc(Cl)c(Cl)c1)[C@@H]1CCCC[C@@H]1N1CCCC1 | inactive: 6.3% |
